Test results as given in PubChem BioAssay (NCI).
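Cells were grown in 96-well plates and exposed to each compound for 48 hours at five concentrations; endpoints were interpolated linearly between bracketing concentrations, or set to the highest concentration if not reached. Abbreviation: GI50, concentration required for 50% inhibition of growth. The concentration for full growth arrest is given as TGI.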

Key:
Test in all cases: inhibition of tumour cell growth, NCI panel, 48 h
SNB-19 CNS = tested on: SNB-19 CNS
NCI-H460 lung = tested on: NCI-H460 lung
SF-268 CNS = tested on: SF-268 CNS
NCI-H226 lung = tested on: NCI-H226 lung
NCI-H23 lung = tested on: NCI-H23 lung
IGROV1 ovarian = tested on: IGROV1 ovarian
EKVX NSCLC = tested on: EKVX NSCLC
SF-295 CNS = tested on: SF-295 CNS
OVCAR-3 ovarian = tested on: OVCAR-3 ovarian
UO-31 renal = tested on: UO-31 renal
SK-OV-3 ovarian = tested on: SK-OV-3 ovarian
SK-MEL-28 melanoma = tested on: SK-MEL-28 melanoma
M14 melanoma = tested on: M14 melanoma
MALME-3M melanoma = tested on: MALME-3M melanoma
CAKI-1 renal = tested on: CAKI-1 renal
SW-620 colon = tested on: SW-620 colon
HOP-18 NSCLC = tested on: HOP-18 NSCLC
NCI-H322M lung = tested on: NCI-H322M lung
RXF 393 renal = tested on: RXF 393 renal
SNB-75 CNS = tested on: SNB-75 CNS
CCRF-CEM leukemia = tested on: CCRF-CEM leukemia
UACC-62 melanoma = tested on: UACC-62 melanoma
LXFL 529 NSCLC = tested on: LXFL 529 NSCLC
786-0 renal = tested on: 786-0 renal
M19-MEL melanoma = tested on: M19-MEL melanoma
K-562 leukemia = tested on: K-562 leukemia
RPMI-8226 leukemia = tested on: RPMI-8226 leukemia
SK-MEL-2 melanoma = tested on: SK-MEL-2 melanoma
SR leukemia = tested on: SR leukemia

In the case of CCCCCCP(=O)(OC)OC, the GI50 (SNB-19 CNS) is reported as > 100 µM, the TGI (SNB-19 CNS) is reported as > 100 µM and the GI50 (NCI-H460 lung) is reported as > 100 µM. The TGI (NCI-H460 lung) was > 100 µM, the GI50 (SF-268 CNS) was > 100 µM and the TGI (SF-268 CNS) was > 100 µM. The GI50 (NCI-H226 lung) was > 100 µM, the TGI (NCI-H226 lung) was > 100 µM and the GI50 (NCI-H23 lung) was > 100 µM. The TGI (NCI-H23 lung) was > 100 µM, the GI50 (IGROV1 ovarian) was > 100 µM and the TGI (IGROV1 ovarian) was > 100 µM. The GI50 (EKVX NSCLC) was > 100 µM, the TGI (EKVX NSCLC) was > 100 µM and the GI50 (SF-295 CNS) was > 100 µM. The TGI (SF-295 CNS) was > 100 µM, the GI50 (OVCAR-3 ovarian) was > 100 µM and the TGI (OVCAR-3 ovarian) was > 100 µM. The GI50 (UO-31 renal) was > 100 µM, the TGI (UO-31 renal) was > 100 µM and the GI50 (SK-OV-3 ovarian) was > 100 µM. The TGI (SK-OV-3 ovarian) was > 100 µM, the GI50 (SK-MEL-28 melanoma) was > 100 µM and the TGI (SK-MEL-28 melanoma) was > 100 µM. The GI50 (M14 melanoma) was > 100 µM, the TGI (M14 melanoma) was > 100 µM and the GI50 (MALME-3M melanoma) was > 100 µM. For the same compound, the TGI (MALME-3M melanoma) was > 100 µM, the GI50 (CAKI-1 renal) was > 100 µM and the TGI (CAKI-1 renal) was > 100 µM. The GI50 (SW-620 colon) was 79.5 µM, the TGI (SW-620 colon) was > 100 µM and the GI50 (HOP-18 NSCLC) was > 100 µM. For the same compound, the TGI (HOP-18 NSCLC) was > 100 µM, the GI50 (NCI-H322M lung) was > 100 µM and the TGI (NCI-H322M lung) was > 100 µM. For the same compound, the GI50 (RXF 393 renal) was > 100 µM, the TGI (RXF 393 renal) was > 100 µM and the GI50 (SNB-75 CNS) was > 100 µM. The TGI (SNB-75 CNS) was > 100 µM, the GI50 (CCRF-CEM leukemia) was > 100 µM and the TGI (CCRF-CEM leukemia) was > 100 µM. The GI50 (UACC-62 melanoma) was > 100 µM, the TGI (UACC-62 melanoma) was > 100 µM and the GI50 (LXFL 529 NSCLC) was > 100 µM. The TGI (LXFL 529 NSCLC) was > 100 µM, the GI50 (786-0 renal) was > 100 µM and the TGI (786-0 renal) was > 100 µM. For the same compound, the GI50 (M19-MEL melanoma) was > 100 µM, the TGI (M19-MEL melanoma) was > 100 µM and the GI50 (K-562 leukemia) was > 100 µM. The TGI (K-562 leukemia) was > 100 µM, the GI50 (RPMI-8226 leukemia) was > 100 µM and the TGI (RPMI-8226 leukemia) was > 100 µM. The GI50 (SK-MEL-2 melanoma) was > 100 µM, the TGI (SK-MEL-2 melanoma) was > 100 µM and the GI50 (SR leukemia) was > 100 µM.
